ChEMBL document CHEMBL1130475 (Bioorg Med Chem Lett, 1997)

Chains of the proteins cited; added tags and fusions are not shown.
UniProt Q8QGU2, whole entry: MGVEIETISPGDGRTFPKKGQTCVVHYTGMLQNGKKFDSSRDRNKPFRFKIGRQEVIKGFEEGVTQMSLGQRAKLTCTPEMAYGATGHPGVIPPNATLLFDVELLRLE

Biological target: FK506 binding protein 12 (Gallus gallus, UniProt Q8QGU2)
Test: Inhibition of binding to FKBP12 receptor

- Ki: 20 nM
Structure (SMILES): CCC(C)(C)C(=O)C(=O)N1CCCCC1C(=O)OC(CCc1ccccc1)CCc1ccccc1 (stereo unspecified)
